Experimental findings from paper PMC3762585 (Chemical & pharmaceutical bulletin, 2012) are described below.

As to “27-deoxy-7β-hydroxy-withaferin A [Withalongolide O 1]”, the IC50 came out at 330 ± 60 nM in the data set with SKMEL-28, 1820 ± 210 nM in the data set with B16F10, 1300 ± 110 nM with MRC-5 and 3.2 ± 0.62 µM in the data set on JMAR.

As a reminder, the IC50 is the concentration that inhibits the measured activity by half. A lower IC50 goes with higher potency.
